Experimental findings from US8586596B2, “Compounds as cannabinoid receptor ligands” (AbbVie Inc., priority 2010, dated 2013) are described below.

The chains behind the UniProt entries cited, without tags or fusion partners. Where a name states a change or a piece, a line headed by the entry shows the natural chain unless it says otherwise.
UniProt Q9QZN9: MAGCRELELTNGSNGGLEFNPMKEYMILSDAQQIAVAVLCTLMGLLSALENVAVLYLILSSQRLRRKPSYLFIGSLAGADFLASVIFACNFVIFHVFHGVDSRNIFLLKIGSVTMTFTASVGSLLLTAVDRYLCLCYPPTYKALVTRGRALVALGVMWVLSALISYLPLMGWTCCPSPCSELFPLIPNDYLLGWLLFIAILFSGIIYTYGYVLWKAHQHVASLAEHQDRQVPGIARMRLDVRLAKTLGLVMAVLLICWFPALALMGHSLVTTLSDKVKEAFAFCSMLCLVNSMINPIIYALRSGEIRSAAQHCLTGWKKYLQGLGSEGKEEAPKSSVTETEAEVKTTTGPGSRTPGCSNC
UniProt P34972, whole entry, looked up: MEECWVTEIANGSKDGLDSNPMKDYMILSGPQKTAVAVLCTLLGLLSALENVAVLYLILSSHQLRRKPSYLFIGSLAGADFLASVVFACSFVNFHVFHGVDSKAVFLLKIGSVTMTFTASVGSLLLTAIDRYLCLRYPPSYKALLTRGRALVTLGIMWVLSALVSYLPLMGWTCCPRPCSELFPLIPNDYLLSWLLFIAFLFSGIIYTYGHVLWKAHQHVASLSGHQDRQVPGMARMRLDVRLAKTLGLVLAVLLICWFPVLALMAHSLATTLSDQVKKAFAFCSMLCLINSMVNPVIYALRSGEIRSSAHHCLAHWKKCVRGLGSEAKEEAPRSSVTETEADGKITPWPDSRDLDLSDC

In one test the target is rat CB2 receptors (Rattus norvegicus, UniProt Q9QZN9). Description: CB2 radioligand binding assay ([3H]CP 55,940 competition), rat. As to conditions: read-out: rat CB2 binding (Ki); membranes of HEK293 cells stably expressing rat CB2; 0.5 nM [3H]CP 55,940.
Another test addresses human CB2 receptors (Homo sapiens, UniProt P34972). Description: CB2 radioligand binding assay ([3H]CP 55,940 competition), human. As to conditions: read-out: human CB2 binding (Ki); membranes of HEK293 cells stably expressing human CB2; 0.5 nM [3H]CP 55,940.

The term Ki denotes a dissociation constant, usually derived from enzyme kinetics or from competition with a known ligand.

Structures are written as SMILES.

Turning to `CCCCn1/c(=N/C(=O)c2cc(C(F)(F)F)ccc2OC[C@H](C)O)sc2c(=O)n(C)ncc21`, the Ki on rat CB2 receptors turned out to be 1.5 nM; at human CB2 receptors, 6.2 nM.
